{"sequences": {"note": "Sequences of proteins named here, by UniProt entry; tags and fusion partners are left off.", "UniProt A0AAU8BSW0, entry or part of it": "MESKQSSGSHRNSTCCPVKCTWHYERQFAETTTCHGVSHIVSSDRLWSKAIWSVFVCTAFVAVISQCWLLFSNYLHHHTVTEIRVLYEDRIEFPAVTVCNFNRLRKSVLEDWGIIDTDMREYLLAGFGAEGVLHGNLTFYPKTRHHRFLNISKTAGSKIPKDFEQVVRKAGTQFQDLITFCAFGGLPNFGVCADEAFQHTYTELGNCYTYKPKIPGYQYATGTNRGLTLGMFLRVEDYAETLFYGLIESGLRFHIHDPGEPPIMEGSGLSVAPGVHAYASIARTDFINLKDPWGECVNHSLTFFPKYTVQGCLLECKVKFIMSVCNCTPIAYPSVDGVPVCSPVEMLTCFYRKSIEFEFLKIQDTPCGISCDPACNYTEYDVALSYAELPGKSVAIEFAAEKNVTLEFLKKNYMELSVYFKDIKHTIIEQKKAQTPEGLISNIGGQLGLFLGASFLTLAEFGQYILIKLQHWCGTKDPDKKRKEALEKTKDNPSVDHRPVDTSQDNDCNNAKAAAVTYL"}, "source": "paper PMC11750451", "about": "“Diarylamidine activation of a brachiopod DEG/ENaC/ASIC channel” (The Journal of Biological Chemistry, 2024)", "biological_target": "DiaaNaC (diarylamidine-activated Na+ channel) (Novocrania anomala, UniProt A0AAU8BSW0)", "test": "Two-electrode voltage clamp of Xenopus laevis oocytes expressing WT DiaaNaC", "format": "cell-based", "protocol": "Before electrophysiological recordings or surface expression determination, the oocytes were cultured for 3 days at 18 °C in 50% Leibowitz medium (L1518, Merck), supplemented with 0.25 mg/ml gentamicin, 1 mM L-glutamine, and 15 mM Hepes (pH 7.6). For surface expression detection, mouse anti-Myc tag monoclonal IgG1 antibody (MA121316, Fisher Scientific) was used to detect the myc tag attached to the 3′-end of all the constructs used in this work, and the protocol previously used in our lab was followed ([47]) using a Zeiss Axio Scope A1 microscope. The intensity of the expression signal was quantified by tracing a perpendicular line across the oocyte membrane and measuring the gray values with ImageJ software ([48]).\nWhole cell currents were recorded from oocytes by two-electrode voltage clamp using an OC-725D amplifier (Warner Instruments) controlled via an Axon Digitata 1550B interface and pClamp v11 (Molecular Devices), acquired at 1 kHz, and filtered at 200 Hz. Currents were analyzed in pClamp v10.7 software (Molecular Devices) and additionally filtered at 10 Hz for display in figures. Oocytes were clamped at −60 mV, unless otherwise indicated, and continuously perfused with a bath solution containing (in mM): 140 NaCl, 1.8 BaCl2, and 10 Hepes. The pH was adjusted to 7.5 with NaOH, HCl, or KOH, as appropriate. For current–voltage relationships where K^+ replaced Na^+, KCl replaced NaCl in the above bath solution. In most experiments, activating solution was applied to oocytes in between resting periods of at least 30 to 60 s. After retrieving current amplitude from pClamp, all data were analyzed in Prism v9 (GraphPad Software). Currents were normalized by dividing by the maximum current at that oocyte, giving “I/Imax” in most concentration–response graphs. For graphs in figures and for calculating half-maximal effective (or inhibitory) concentration (EC50 or IC50) values, variable slope nonlinear regression was used in Prism v9, with the equation Y = Bottom + (Top-Bottom)/ […] 10^∧((LogEC50-X)∗HillSlope)), and maximum was constrained to one and minimum to zero. […]", "note": "“Also recorded” adds a separate entry of the source.", "data": [{"smiles": "N=C(N)NC(=O)c1nc(Cl)c(N)nc1N", "note": "[amiloride]", "values": [{"measurement": "IC50", "value": "~800", "unit": "µM"}, {"measurement": "percentage of amiloride block, change with membrane voltage", "setting": "1 mM amiloride, pentamidine 300 μM, −100 mV to +10 mV", "value": "did not change significantly"}, {"measurement": "activation of DiaaNaC (agonist activity)", "setting": "compound at 1 mM, −60 mV", "value": "activated no current; also recorded: none of these compounds activated"}]}]}
